# Earlier results, collected in patent US5304113A, “Method of eradicating infectious biological contaminants” (The MCW Research Foundation, Inc., priority 1990, dated 1994).
# Conditions: comparison dye; cited from earlier work
smiles,measurement,value
CC1(C)C(/C=C/C=C/C=C/C=C2\N(CCCCS(=O)(=O)O)c3ccc4ccccc4c3C2(C)C)=[N+](CCCCS(=O)(=O)[O-])c2ccc3ccccc3c21 [indocyanine green],"LD50 (mouse), for comparison",70 mg/kg
